pEC50, pIC50: −log10 of the molar value.
Tests used:
KRAS G12S = KRAS G12S (Homo sapiens (Human), UniProt P01116+P62937, G12S); experiment: Ras-Raf disruption/FRET/MOA assay, KRAS G12S; type: biochemical; conditions: read-out: KRAS G12S FRET IC50
KRAS G13C = KRAS G13C (Homo sapiens (Human), UniProt P01116+P62937, G13C); experiment: Ras-Raf disruption/FRET/MOA assay, KRAS G13C; type: biochemical; conditions: read-out: KRAS G13C FRET IC50
KRAS G12V = KRAS G12V (Homo sapiens (Human), UniProt P01116+P62937, G12V); experiment: Ras-Raf disruption/FRET/MOA assay, KRAS G12V; type: biochemical; conditions: read-out: KRAS G12V FRET IC50
AsPC-1 (K-Ras G12D) = experiment: CellTiter-Glo cell viability assay, AsPC-1; type: cell-based, human; conditions: read-out: AsPC-1 Cell Viability IC50, 5-day treatment
KRAS G13D = KRAS G13D (Homo sapiens (Human), UniProt P01116+P62937, G13D); experiment: Ras-Raf disruption/FRET/MOA assay, KRAS G13D; type: biochemical; conditions: read-out: KRAS G13D FRET IC50
NCI-H358 (K-Ras G12C) = experiment: CellTiter-Glo cell viability assay, H358; type: cell-based, human; conditions: read-out: H358 Cell Viability IC50, 5-day treatment
KRAS G12D = KRAS G12D (Homo sapiens (Human), UniProt P01116+P62937, G12D); experiment: Ras-Raf disruption/FRET/MOA assay, KRAS G12D; type: biochemical; conditions: read-out: KRAS G12D FRET IC50
[1] = target: K-Ras G12C(GMP-PNP) binding to BRAF RBD (Homo sapiens (Human), UniProt P01116+P62937, G12C); experiment: Disruption of BRAF RBD interaction with K-Ras (FRET / MOA assay), K-Ras G12C; type: biochemical; conditions: read-out: KRAS G12C FRET IC50
[2] = target: KRAS G12S binding to BRAF RBD (Homo sapiens (Human), UniProt P01116+P62937, G12S); experiment: Ras-Raf disruption/FRET/MOA assay, KRAS G12S; type: biochemical; conditions: read-out: KRAS G12S FRET IC50
[3] = target: KRAS G12V binding to BRAF RBD (Homo sapiens (Human), UniProt P01116+P62937, G12V); experiment: Ras-Raf disruption/FRET/MOA assay, KRAS G12V; type: biochemical; conditions: read-out: KRAS G12V FRET IC50
[4] = target: KRAS G13C binding to BRAF RBD (Homo sapiens (Human), UniProt P01116+P62937, G13C); experiment: Ras-Raf disruption/FRET/MOA assay, KRAS G13C; type: biochemical; conditions: read-out: KRAS G13C FRET IC50
[5] = system: K-Ras G12C (NCI-H358 cells); experiment: Potency assay: pERK in NCI-H358 cells; type: cell-based, human; conditions: read-out: pERK EC50 (H358 KRAS G12C); NCI-H358 cells, 4 hours

The chains behind the UniProt entries cited, without tags or fusion partners. Where a name states a change or a piece, a line headed by the entry shows the natural chain unless it says otherwise. A line that says so, or that is headed by a name, gives the form on record, which may keep a tag or linker. Residues count along the entry.
UniProt P01116, 1-164 with tags or gaps G12C limits assumed: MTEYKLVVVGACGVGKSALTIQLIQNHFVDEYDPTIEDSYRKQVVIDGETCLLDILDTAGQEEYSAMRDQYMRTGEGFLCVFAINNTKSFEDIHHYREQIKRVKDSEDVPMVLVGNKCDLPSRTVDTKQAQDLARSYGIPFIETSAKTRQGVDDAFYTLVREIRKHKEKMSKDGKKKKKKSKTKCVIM
UniProt P01116, 1-164 with tags or gaps G12S limits assumed: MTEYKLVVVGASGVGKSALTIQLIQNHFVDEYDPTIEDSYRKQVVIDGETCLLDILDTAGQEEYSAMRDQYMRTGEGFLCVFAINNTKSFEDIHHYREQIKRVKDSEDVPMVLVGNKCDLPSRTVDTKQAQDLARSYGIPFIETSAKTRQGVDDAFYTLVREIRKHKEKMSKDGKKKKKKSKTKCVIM
UniProt P01116, 1-164 with tags or gaps G12V limits assumed: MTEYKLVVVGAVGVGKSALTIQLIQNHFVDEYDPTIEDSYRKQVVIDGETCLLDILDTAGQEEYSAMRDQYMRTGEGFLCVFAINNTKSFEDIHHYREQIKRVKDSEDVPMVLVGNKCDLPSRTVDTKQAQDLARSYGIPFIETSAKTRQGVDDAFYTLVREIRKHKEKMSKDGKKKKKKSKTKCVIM
UniProt P01116, 1-164 with tags or gaps G13C limits assumed: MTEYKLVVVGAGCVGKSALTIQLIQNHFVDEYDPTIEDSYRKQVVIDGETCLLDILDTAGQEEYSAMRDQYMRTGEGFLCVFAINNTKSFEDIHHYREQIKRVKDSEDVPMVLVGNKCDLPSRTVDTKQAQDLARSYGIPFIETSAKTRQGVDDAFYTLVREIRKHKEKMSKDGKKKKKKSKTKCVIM
UniProt P01116, 1-164 with tags or gaps G12D limits assumed: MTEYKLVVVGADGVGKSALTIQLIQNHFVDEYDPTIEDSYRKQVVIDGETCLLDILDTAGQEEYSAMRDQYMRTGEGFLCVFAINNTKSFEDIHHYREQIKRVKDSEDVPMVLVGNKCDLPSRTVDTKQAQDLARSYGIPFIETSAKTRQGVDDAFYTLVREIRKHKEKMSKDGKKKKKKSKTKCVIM
UniProt P01116, 1-164 with tags or gaps G13D limits assumed: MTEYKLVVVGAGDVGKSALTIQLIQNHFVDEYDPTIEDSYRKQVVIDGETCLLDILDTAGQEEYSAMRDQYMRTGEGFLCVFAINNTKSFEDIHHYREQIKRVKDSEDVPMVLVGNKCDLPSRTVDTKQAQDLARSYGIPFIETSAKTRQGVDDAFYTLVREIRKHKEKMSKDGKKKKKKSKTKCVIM
UniProt P62937, whole entry, stated change not applied: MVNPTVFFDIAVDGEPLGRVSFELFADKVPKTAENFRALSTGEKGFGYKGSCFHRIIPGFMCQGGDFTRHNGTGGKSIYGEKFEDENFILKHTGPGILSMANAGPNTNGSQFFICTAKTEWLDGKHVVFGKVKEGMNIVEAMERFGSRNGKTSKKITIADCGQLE

CCn1c(-c2cccnc2[C@H](C)OC)c2c3cc(ccc31)-c1cc(O)cc(c1)C[C@H](NC(=O)[C@H](C(C)C)N(C)C(=O)CN(C)C(=O)[C@H]1CN1)C(=O)N1CCC[C@H](N1)C(=O)OCC(C)(C)C2 [42 A]
pIC50 (KRAS G12S): 7.00 to 8.00 | pIC50 (KRAS G13C): > 8.00 | pIC50 (KRAS G12V): 7.00 to 8.00 | pIC50 (AsPC-1 (K-Ras G12D)): 6.00 to 7.00 | pIC50 (KRAS G13D): 7.00 to 8.00 | pIC50 (NCI-H358 (K-Ras G12C)): > 8.00 | pIC50 (KRAS G12D): 7.00 to 8.00

C=CC(=O)N1CC[C@H](C(=O)N(C)[C@H](C(=O)N[C@H]2Cc3cc(O)cc(c3)-c3ccc4c(c3)c(c(-c3cncc(C#N)c3)n4CC)CC(C)(C)COC(=O)[C@@H]3CCCN(N3)C2=O)C(C)C)C1
pIC50 [1]: 6.00 to 7.00

CCn1c(-c2cccnc2[C@@H](C)OC)c2c3cc(ccc31)-c1cc(O)cc(c1)C[C@H](NC(=O)[C@H](C(C)C)N(C)C(=O)[C@H]1CCN(C(=O)[C@H]3CN3)C1)C(=O)N1CCC[C@H](N1)C(=O)OCC(C)(C)C2 (atropisomer, axis not shown) [Example 43B]
pIC50 (KRAS G12S): 5.00 to 6.00 | pIC50 (KRAS G13C): 5.00 to 6.00 | pIC50 (KRAS G12V): 5.00 to 6.00 | pIC50 (AsPC-1 (K-Ras G12D)): < 5.00 | pIC50 (KRAS G13D): 5.00 to 6.00 | pIC50 (NCI-H358 (K-Ras G12C)): 7.00 to 8.00 | pIC50 (KRAS G12D): 5.00 to 6.00

CCn1c(-c2cnccc2COC)c2c3cc(ccc31)-c1cc(O)cc(c1)C[C@H](NC(=O)[C@H](C(C)C)N(C)C(=O)[C@H]1CCN(C(=O)/C=C/CN(C)C)C1)C(=O)N1CCC[C@H](N1)C(=O)OCC(C)(C)C2
pIC50 [2]: 7.00 to 8.00 | pIC50 [3]: 7.00 to 8.00

C=CC(=O)N1C[C@H](C)[C@H](C(=O)N(C)[C@H](C(=O)N[C@H]2Cc3cc(O)cc(c3)-c3ccc4c(c3)c(c(-c3cccnc3COC)n4CC)CC(C)(C)COC(=O)[C@@H]3CCCN(N3)C2=O)C(C)C)C1
pIC50 [1]: 7.00 to 8.00

CCn1c(-c2ccccc2CN(C)C)c2c3cc(ccc31)-c1cc(O)cc(c1)C[C@H](NC(=O)[C@H](C(C)C)N(C)C(=O)c1ccc(NC(=O)/C=C/CN(C)C)cc1)C(=O)N1CCC[C@H](N1)C(=O)OCC(C)(C)C2
pIC50 [1]: 5.00 to 6.00

C=CC(=O)N1CC[C@H](C(=O)N(C)[C@H](C(=O)N[C@H]2Cc3cc(N)cc(c3)-c3ccc4c(c3)c(c(-c3ccccc3COC)n4CC)CC(C)(C)COC(=O)[C@@H]3CCCN(N3)C2=O)C(C)C)C1 [A002]
pIC50 [1]: 5.00 to 6.00

C=CC(=O)N1C[C@H](C)[C@H](C(=O)N(C)[C@H](C(=O)N[C@H]2Cc3cc(O)cc(c3)-c3ccc4c(c3)c(c(-c3ccccc3CN(C)C)n4CC)CC(C)(C)COC(=O)[C@@H]3CCCN(N3)C2=O)C2CCCC2)C1
pIC50 [1]: 7.00 to 8.00

C=CC(=O)N1CC[C@H](C(=O)N(C)[C@H](C(=O)N[C@H]2Cc3cc(O)cc(c3)-c3ccc4c(c3)c(c(-c3ccc5c(c3)OCCN5C)n4CC)CC(C)(C)COC(=O)[C@@H]3CCCN(N3)C2=O)C(C)C)C1
pIC50 [1]: 6.00 to 7.00

CCn1c(-c2cccnc2COC)c2c3cc(ccc31)-c1cc(O)cc(c1)C[C@H](NC(=O)[C@H](C(C)C)N(C)C(=O)[C@H]1CCN(C(=O)C#CCN(C)C)C1)C(=O)N1CCC[C@H](N1)C(=O)OCC(C)(C)C2
pIC50 [4]: > 8.00 | pIC50 [1]: > 8.00

C=CC(=O)N1CC[C@H](C(=O)N(C)[C@H](C(=O)N[C@H]2Cc3cc(O)cc(c3)-c3ccc4c(c3)c(c(-c3ccc5c(c3)CCN(C)C5)n4CC)CC(C)(C)COC(=O)[C@@H]3CCCN(N3)C2=O)C(C)C)C1 [Compound A40]
pIC50 [1]: 6.00 to 7.00

C=CC(=O)N1CC[C@H](C(=O)N(C)[C@H](C(=O)N[C@H]2Cc3cccc(c3)-c3ccc4c(c3)c(c(-c3cccnc3COC)n4CC)CC(C)(C)COC(=O)[C@@H]3CCCN(N3)C2=O)C(C)C)C1
pIC50 [1]: 6.00 to 7.00

C=CC(=O)N1CC(OC[C@H](C(=O)N[C@H]2Cc3cc(F)cc(c3)-c3ccc4c(c3)c(c(-c3cccnc3[C@H](C)OC)n4CC(F)(F)F)CC(C)(C)COC(=O)[C@@H]3CCCN(N3)C2=O)C(C)C)C1
pEC50 [5]: > 5.30

C=CC(=O)N1CC[C@H](C(=O)N(C)[C@H](C(=O)N[C@H]2Cc3cc(OC(C)=O)cc(c3)-c3ccc4c(c3)c(c(-c3ccccc3CN(C)C)n4CC)CC(C)(C)COC(=O)[C@@H]3CCCN(N3)C2=O)C(C)C)C1
pIC50 [1]: 5.00 to 6.00

C=CC(=O)N1CC[C@H](C(=O)N(C)[C@H](C(=O)N[C@H]2Cc3cc(O)cc(c3)-c3ccc4c(c3)c(c(-c3ccc(CN(C)C)nc3)n4CC)CC(C)(C)COC(=O)[C@@H]3CCCN(N3)C2=O)C(C)C)C1 [Compound A3]
pIC50 [1]: 6.00 to 7.00

CO[C@@H](C)c1ncccc1-c1c2c3nc(ccc3n1CC(F)(F)F)-c1cccc(c1)C[C@H](NC(=O)[C@@H](COC1CN(C(=O)C#CC(C)(C)N(C)C)C1)C(C)C)C(=O)N1CCC[C@H](N1)C(=O)OCC(C)(C)C2
pEC50 [5]: > 5.30
